Source: US20040219607A1, “Ligand screening and design by X-ray crystallography” (priority 1998, published 2004)

Molecular target: T1, human urokinase (μUK) (Homo sapiens, UniProt P00749, C299A/N322Q)
T1 construct: μUK (UK amino acids Ile^159-Lys^404 that contain Ala^279Gln^302); made in house; host or cells: baculovirus-infected High-Five insect cells or Pichia pastoris GS115 (secreted)
Assay: Urokinase inhibition constants by S-2444 chromogenic activity
Assay type: biochemical
Conditions: S-2444 substrate
Experimental: Assays were completed at both pH 6.5 (0.1 M NaPO4) and 7.4 (50 mM Tris).

In the case of Nc1ccc2cccc(Nc3ncccn3)c2n1 [Compound 35, 8-aminopyrimidinyl-2-aminoquinoline], the Ki (Ki (pH 6.5), pH 6.5 (0.1 M NaPO4)) is reported as 320 nM and the Ki (Ki (pH 7.4), pH 7.4 (50 mM Tris)) is reported as 2500 nM.
